In ChEMBL document CHEMBL1148402, “Anti-AIDS agents. 52. Synthesis and anti-HIV activity of hydroxymethyl (3'R,4'R)-3',4'-di-O-(S)-camphanoyl-(+)-cis-khellactone derivatives” (J Med Chem, 2004):

Key:
Rattus norvegicus = assay: Clearance in male Sprague-Dawley rats following an intravenous bolus dose at 10-20 mg/kg; assay type: ADME, organism-based; conditions: in vivo
Outline: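 Adult male Sprague–Dawley rats (approx. 250 g) dosed iv at 10-20 mg/kg and orally as a suspension at 25 mg/kg. Nine 0.4 mL blood samples taken over 8 h. Plasma levels measured by reversed-phase HPLC with UV (320 nm) and fluorescence (ex 320/em 380 nm) detection. Detection limit approx. 50 ng/mL (UV) and 10 ng/mL (fluorescence) from 0.10 mL plasma. Parameters from noncompartmental analysis; half-life from the terminal log-linear phase; N=3–4 rats.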

[1] = Therapeutic index (IC50/EC50) was determined; conditions: read-out: TI
Outline: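 H9 T-cells (3 × 10^5 cells/mL) in RPMI 1640 with 10% FCS at 37 °C, 5% CO2, infected with HIV-1 IIIB (125 TCID50). Medium replaced on days 1 and 4 post-infection. Supernatant p24 antigen capture read on day 6. EC50 is the concentration suppressing replication by 50%; TI = IC50/EC50. AZT run as positive control. Averages of at least two experiments.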

SMILES: Cc1cc(=O)oc2c3c(ccc12)OC(C)(C)[C@H](OC(=O)C12CCC(C)(C(=O)O1)C2(C)C)[C@@H]3OC(=O)C12CCC(C)(C(=O)O1)C2(C)C (some centres not stated)
- CL (Rattus norvegicus): 211 L/h/kg
- selectivity ratio [1]: 16000
